From patent US5028411A, “Pharmaceutical compositions” (priority 1984, dated 1991)

Experiment: Ksol, ability to solubilise iron(III) hydroxide
Format: physicochemical
Conditions: must be >0 to solubilise iron(III) hydroxide
Description: In order to solubilise iron(III) hydroxide, log Ksol must be greater than 0.

apotransferrin
log Ksol: 6.0
